# Data taken from article PMC11089204 (Frontiers in Pharmacology, 2024).
# Protein sequences, listed by entry. Tags and fused reporters are not part of them.
# UniProt P10635, whole entry: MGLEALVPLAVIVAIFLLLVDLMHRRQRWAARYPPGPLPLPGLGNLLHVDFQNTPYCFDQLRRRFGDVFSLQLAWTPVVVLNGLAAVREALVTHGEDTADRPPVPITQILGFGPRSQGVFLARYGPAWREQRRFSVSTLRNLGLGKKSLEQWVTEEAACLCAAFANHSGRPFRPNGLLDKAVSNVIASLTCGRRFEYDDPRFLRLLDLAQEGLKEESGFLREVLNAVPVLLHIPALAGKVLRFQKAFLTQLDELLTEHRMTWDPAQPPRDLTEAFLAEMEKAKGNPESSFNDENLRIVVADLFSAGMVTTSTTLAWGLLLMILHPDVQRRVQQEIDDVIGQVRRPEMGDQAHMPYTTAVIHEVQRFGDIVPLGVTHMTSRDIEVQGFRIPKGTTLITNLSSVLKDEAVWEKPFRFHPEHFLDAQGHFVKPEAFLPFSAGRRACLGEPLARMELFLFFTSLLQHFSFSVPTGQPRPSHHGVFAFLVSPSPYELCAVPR
# UniProt P28223, whole entry: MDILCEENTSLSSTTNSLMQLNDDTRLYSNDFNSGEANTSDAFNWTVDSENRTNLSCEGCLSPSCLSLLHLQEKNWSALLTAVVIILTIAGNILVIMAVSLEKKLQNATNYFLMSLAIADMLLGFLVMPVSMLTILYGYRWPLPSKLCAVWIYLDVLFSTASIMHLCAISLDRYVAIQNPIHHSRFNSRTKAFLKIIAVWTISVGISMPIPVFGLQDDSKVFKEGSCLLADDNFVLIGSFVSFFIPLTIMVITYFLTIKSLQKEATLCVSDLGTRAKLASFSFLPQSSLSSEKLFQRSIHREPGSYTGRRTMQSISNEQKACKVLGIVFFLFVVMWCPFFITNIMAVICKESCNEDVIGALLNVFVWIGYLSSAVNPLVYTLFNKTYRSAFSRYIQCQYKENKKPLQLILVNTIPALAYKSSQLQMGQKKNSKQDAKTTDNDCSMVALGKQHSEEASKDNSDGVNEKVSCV
# UniProt P41595, whole entry: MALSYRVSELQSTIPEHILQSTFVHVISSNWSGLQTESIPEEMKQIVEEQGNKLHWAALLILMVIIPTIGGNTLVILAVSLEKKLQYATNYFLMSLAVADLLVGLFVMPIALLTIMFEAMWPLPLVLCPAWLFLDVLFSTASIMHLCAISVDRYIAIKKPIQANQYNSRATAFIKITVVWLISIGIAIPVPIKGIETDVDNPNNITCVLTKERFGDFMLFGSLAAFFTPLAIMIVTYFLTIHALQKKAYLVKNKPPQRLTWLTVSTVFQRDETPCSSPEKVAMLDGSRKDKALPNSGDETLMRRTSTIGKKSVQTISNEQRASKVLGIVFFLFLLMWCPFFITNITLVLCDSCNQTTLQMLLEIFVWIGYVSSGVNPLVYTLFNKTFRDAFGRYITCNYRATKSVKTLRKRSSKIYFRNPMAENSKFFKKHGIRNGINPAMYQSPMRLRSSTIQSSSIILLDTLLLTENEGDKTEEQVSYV
# Columns and labels:
# recombinant CYP2D6 = target: T1, recombinant CYP2D6 (Homo sapiens, UniProt P10635); assay: Incubation with recombinant CYP2D6 enzymes; assay type: in vitro ADME; conditions: 1,000 nM psilocin
# T1 construct: purchased Corning Life Sciences B.V
# Description: Corning UltraPool human liver microsomes (HLM) 150 (20 mg/mL), human intestinal microsomes (HIM) pool (10 mg/mL) as well as recombinant human CYP enzymes (with P450 oxidoreductase, OR) including CYP1A2+OR (0.5 nmol), CYP2B6+OR (0.5 nmol), CYP2C8+OR (1.0 nmol), CYP2C9*1+OR (1 nmol), CYP2C19+OR (0.5 nmol), CYP2D6*1+OR (0.5 nmol), CYP2E1+OR + cytochrome b5 (1 nmol), CYP3A4+OR + cytochrome b5 (0.5 nmol), MAO-A (5 mg/mL), MAO-B (5 mg/mL), and UGT1A10 (5 mg/mL) were purchased from Corning Life Sciences B.V (Amsterdam, Netherlands). All microsomes and recombinant enzyme solutions were aliquoted and stored at −80 °C until further use.
# The total volume of the reaction mixture was 500 μL. […] Samples were either directly analyzed by liquid chromatography tandem mass spectrometry (LC-MS/MS) or briefly stored at −20°C until analysis.
# human 5-HT2A receptor = human 5-HT2A receptor (Homo sapiens, UniProt P28223); conditions: Gq-dependent calcium flux, nearly full agonist; ref Sherwood et al., 2020; cited from earlier work
# human 5-HT2B receptor = target: T2, human 5-HT2B receptor (Homo sapiens, UniProt P41595); assay: 5-HT activation potency (IP1 accumulation), 5-HT2B; assay type: cell-based; conditions: h5-HT2B Activation potency EC50 ± SD, NIH/3T3 cells
# T2 construct: expressed in transfected cells; host or cells: NIH/3T3
# Description: . […] NIH/3T3 cells stably expressing the human 5-HT1A, 5-HT2A, and 5-HT2B receptors were seeded at a density of 3,000 cells (5-HT1A and 5-HT2A) or 4,000 cells (5-HT2B) in 384-well plates using Opti-MEM medium from Gibco (ThermoFisher, Life Technologies, Zug, Switzerland). Subsequently, the test compounds were introduced, and the plates were incubated for 90 min at 37°C, followed by a 60 min incubation with Anti-IP1-Cryptate and IP1-d2 at room temperature. The formation of stimulated IP1 was quantified by homogeneous time-resolved fluorescence (HTRF) measurements using a BioTek Synergy H1 microplate reader (Agilent Technologies, Basel, Switzerland). The obtained raw data for receptor activation were subjected to normalization, wherein the baseline signal was set at 0%, and the maximum signal stimulated by 5-HT at the specific receptor was established as 100%.
Structure (SMILES),"signal intensity (area ratio) of metabolite (recombinant CYP2D6; rec. CYP2D6, t = 30 min) [counts]","signal intensity (area ratio) of metabolite (recombinant CYP2D6; rec. CYP2D6, t = 240 min) [counts]",EC50 (human 5-HT2A receptor) [nM],EC50 (human 5-HT2B receptor)
"CNCCc1c[nH]c2cccc(O)c12 [norpsilocin, N-methyl-4-hydroxytryptamine]",0.004 ± 0.001,0.0010 ± 0.0003,< 10,
"CN(C)CCc1c[nH]c2cccc(O)c12 [psilocin, 4-hydroxy-N,N-dimethyltryptamine]",,,,21.5 nM and < 74.5 nM

# Where “and” joins values, the source holds several entries; their conditions need not be identical. Equal values may be shown once.
